# In ChEMBL document CHEMBL2203175, “Discovery and optimization of sulfonyl acrylonitriles as selective, covalent inhibitors of protein phosphatase methylesterase-1” (J Med Chem, 2011):
# Where a chain is given by its changes, count along the chain named.
# How the values were obtained:
# [1] = biological target: T1, Protein phosphatase methylesterase 1 (Homo sapiens, UniProt Q9Y570); experiment: Inhibition of PME1 binding to FP-rhodamine in HEK293T cells after 1 hr by fluorescence polarization activity-based protein profiling assay; assay type: cell-based, HEK-293T
# T1 sequence (Q9Y570 whole entry): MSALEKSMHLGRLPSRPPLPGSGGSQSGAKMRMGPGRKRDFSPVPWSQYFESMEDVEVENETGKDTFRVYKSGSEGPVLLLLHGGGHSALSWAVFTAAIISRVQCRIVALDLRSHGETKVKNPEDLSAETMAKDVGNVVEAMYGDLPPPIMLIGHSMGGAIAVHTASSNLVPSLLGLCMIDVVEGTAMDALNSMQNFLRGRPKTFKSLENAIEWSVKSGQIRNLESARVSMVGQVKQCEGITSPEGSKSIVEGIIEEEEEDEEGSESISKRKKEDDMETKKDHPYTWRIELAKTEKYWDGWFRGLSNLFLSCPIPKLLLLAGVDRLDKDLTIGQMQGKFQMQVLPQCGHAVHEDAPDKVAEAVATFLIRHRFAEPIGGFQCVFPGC
# [2] = biological target: T2, Protein phosphatase methylesterase 1 (Mus musculus, UniProt Q8BVQ5); experiment: Inhibition of PME1 binding to FP-rhodamine in mouse brain soluble proteome after 45 mins by gel-based competitive activity-based protein profiling assay
# T2 sequence (Q8BVQ5 whole entry): T1 sequence (Q9Y570 whole entry) with S42T, S114G, P123S, I150V, S167A, S168A, I268V, S269N
# [3] = biological target: T1, Protein phosphatase methylesterase 1; experiment: Inhibition of PME1 binding to FP-rhodamine in human HEK293T cells after 45 mins by fluorescence polarization activity-based protein profiling assay; assay type: cell-based, HEK-293T
structure (smiles),measurement,setting,value
N#C/C(=C\c1cccn1S(=O)(=O)c1cccc([N+](=O)[O-])c1)S(=O)(=O)c1ccc(F)cc1,IC50,[1],3.5 µM
same,IC50,[2],0.6 µM
same,IC50,[3],0.6 µM
CS(=O)(=O)/C(C#N)=C/c1cccn1S(=O)(=O)c1ccc(Cl)cc1,IC50,[2],3 µM
N#C/C(=C\c1cccn1S(=O)(=O)c1ccccc1)S(=O)(=O)c1ccc(F)cc1,IC50,[2],4.8 µM
